Measured values published in US20160083400A1, “TRICYCLIC GUANIDINE DERIVATIVE” (Sunovion Pharmaceuticals Inc., priority 2014, published 2016).

Chains of the proteins cited; added tags and fusions are not shown.
UniProt Q01064, whole entry: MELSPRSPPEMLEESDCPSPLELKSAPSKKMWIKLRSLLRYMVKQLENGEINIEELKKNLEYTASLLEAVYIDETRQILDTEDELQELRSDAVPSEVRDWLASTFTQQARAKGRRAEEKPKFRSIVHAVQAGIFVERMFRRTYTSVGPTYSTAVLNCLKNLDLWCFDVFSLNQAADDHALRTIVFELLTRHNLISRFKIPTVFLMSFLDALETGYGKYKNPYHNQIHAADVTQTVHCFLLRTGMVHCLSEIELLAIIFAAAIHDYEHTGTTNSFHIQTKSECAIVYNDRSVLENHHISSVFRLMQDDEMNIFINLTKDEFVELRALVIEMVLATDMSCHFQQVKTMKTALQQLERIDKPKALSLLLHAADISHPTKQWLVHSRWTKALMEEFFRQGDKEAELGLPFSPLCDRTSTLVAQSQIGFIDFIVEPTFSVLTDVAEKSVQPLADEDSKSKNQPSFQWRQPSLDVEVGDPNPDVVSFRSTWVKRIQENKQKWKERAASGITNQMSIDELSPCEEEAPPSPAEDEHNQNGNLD

Molecular target: PDE1B (Homo sapiens, UniProt Q01064)
Test: In vitro HTRF PDE1 inhibition assay (PDE1B)
Details: read-out: IC50 (μM), in vitro PDE1B HTRF Assay, 100 nM cyclic GMP, calmodulin, 45 minutes at 37° C.

SMILES | IC50
Cc1ccc(C2Cn3c(nn4c(C5CCOCC5)ncc4c3=O)N2)c(F)c1 (single isomer, unassigned) | < 1 µM
O=c1c2cnc(C3CCCC3)n2nc2n1CC(c1cncc(Cl)c1)N2 (single isomer, unassigned) | 1 to 10 µM
O=c1c2cnc(C3CCOCC3)n2nc2n1CC(c1ccc(Cl)cc1C(F)(F)F)N2 (single isomer, unassigned) | 10 to 100 µM
O=c1c2cnc(C3CCOCC3)n2nc2n1CC(c1ccc(Cl)cc1F)N2 (single isomer, unassigned) | < 1 µM

Further lines, results first:

IC50 | SMILES
< 1 µM | CC(C)(C)c1ccc(C2Cn3c(nn4c(C5CCOCC5)ncc4c3=O)N2)cc1 (single isomer, unassigned)
< 1 µM | CC(C)c1ccc(C2Cn3c(nn4c(C5CCOCC5)ncc4c3=O)N2)cc1 (single isomer, unassigned)
< 1 µM | CCc1ccc(C2Cn3c(nn4c(C5CCOCC5)ncc4c3=O)N2)cc1 (single isomer, unassigned)
< 1 µM | O=c1c2cnc(C3CCOCC3)n2nc2n1CC(c1ccc(C(F)(F)F)cc1)N2 (single isomer, unassigned)
< 1 µM | O=c1c2cnc(C3CCOCC3)n2nc2n1CC(c1cccc(Cl)c1)N2 (single isomer, unassigned)
